Reference: US4462992A, “Nitroimidazole radiosensitizers for hypoxic tumor cells and compositions thereof” (priority 1982, dated 1984)

Experiments:
[1] = British Journal of Cancer, 40:335 (1979); cited from earlier work
in vivo = conditions: mouse, ip
Description: Neurotoxicity in mice was determined using mice of strain CDF1. This was carried out by (1) determining the LD50 of each compound in mice and (2) observing the animals for acute neurotoxic symptoms such as convulsions. The drugs were either solubilized or suspended in normal saline and administered intraperitoneally to groups of ten mice. […]

[2] = tested on: Chinese hamster cells line V-79; assay: Radiosensitization (enhancement ratio, cobalt-60 irradiation of hypoxic cells); format: cell-based; conditions: 1.0 mM
Description: Asynchronous monolayers of cultures of Chinese hamster cells line V-79 were employed in all experiments. The monolayers were derived from exponentially growing cultures. Methods of culturing and handling have been reported earlier by Cooke et al, Rad. Res. 65, 152 (1976). The plated cultures were rendered hypoxic in sealed dural containers capable of holding seven petri dishes, by purging with nitrogen (oxygen-free grade) for one hour. Irradiation was carried out by using a cobalt-60 source at a dose rate of approximately 240 rad/min according to the procedure described by Agrawal et al Rad. Res. 78:532 (1979). A dose of 1400 rad was given to hypoxic cells in glass petri dishes in the presence of a given drug concentration (2000 cells/dish). Cell survival was estimated from unirradiated toxic hypoxic cells exposed to the same drug concentration. Complete survival curves were obtained for each compound at the radiation doses of 400 to 3000 rad. The Do value was calculated for each compound and the ratio of the Do value for the hypoxic control cells to the Do value of the hypoxic drug treated cells provided the sensitized enhancement ratio of the corresponding agent.
Cultures were incubated for 6 days at 37° C. in an atmosphere of 5% CO2. The resulting colonies were fixed in absolute ethanol and stained with methylene blue and counted.

In the case of COCC(O)Cn1ccnc1[N+](=O)[O-] (stereo not shown) [N, Misonidazole], the ratio brain/plasma [1] is listed as ≥ 0.51, the ratio tumor/plasma [1] is listed as 0.54 and the LD50 at 24 h (in vivo) is listed as 1400 to 1600 mg/kg. The “Radiosensitization (enhancement ratio in Chinese hamster cells)” value [2] was 2.1.
